For one molecule, RP-LC retention time results are on record in the METLIN SMRT retention time set (Domingo-Almenara et al. 2019).

SMILES strings stand for the structures.

The data set can be described thus: gradient 5% acetonitrile 3 min, to 50% in 2 min, to 85% in 15 min, held 3 min, 100 µL/min. Particulars: column: Zorbax Extend-C18 2.1 x 50 mm; eluents: water / acetonitrile, 0.1% formic acid. In short, it runs like this: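 Retention times come from adduct peaks that were picked computationally and then checked by hand. The standards, pure and pooled in mixtures of ~100 molecules, were run on a Zorbax Extend-C18 column (2.1 × 50 mm, 1.8 μm) at 100 μL/min with water and acetonitrile, each with 0.1% formic acid. Detection was by quadrupole time-of-flight mass spectrometry in positive and negative ionization mode, with a dead volume of 40 μL and a dwell volume of 900 μL.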

`NC(=NCCc1ccc(I)cc1)SCCCc1cnc[nH]1` registered an RP-LC retention time of 640 s.
